The species entered for the first experiment is Homo sapiens. Kind of experiment: Selectivity index, ratio of IC50 for wild type EGFR kinase domain (unknown origin) to IC50 for EGFR kinase domain L858R/T790M mutant (unknown origin).
With `C=CC(=O)Nc1cccc(-n2c(=O)c(=O)n(C)c3cnc(Nc4ccc(N5CCN(C)CC5)cc4OC)nc32)c1`, the Ratio IC50 worked out at 101.

With `C=CC(=O)Nc1cccc(-n2c(=O)c(=O)n(C(C)C)c3cnc(Nc4ccc(N5CCC(N6CCN(C)CC6)CC5)cc4OC)nc32)c1`, the Ratio IC50 was found to be 3.6.

As to `C=CC(=O)Nc1cccc(-n2c(=O)c(=O)n(C(C)C)c3cnc(Nc4ccc(N5CCN(C)CC5)cc4OC)nc32)c1`, the Ratio IC50 was 6.7.

Turning to `C=CC(=O)Nc1cccc(-n2c(=O)c(=O)n(C(C)C)c3cnc(Nc4ccc(N5CCN(C)CC5)c(OC)c4)nc32)c1`, the Ratio IC50 is 6.6.

In the case of `C=CC(=O)Nc1cccc(-n2c(=O)c(=O)n(CC)c3cnc(Nc4ccc(N5CCN(C)CC5)cc4OC)nc32)c1`, the Ratio IC50 came out at 67.

With `C=CC(=O)Nc1cccc(-n2c(=O)c(=O)n(C(C)C)c3cnc(Nc4ccc(N(C)CCN(C)C)cc4OC)nc32)c1`, the Ratio IC50 amounted to 1.4.

`C=CC(=O)Nc1cccc(-n2c(=O)c(=O)n(CCC)c3cnc(Nc4ccc(N5CCN(C)CC5)cc4OC)nc32)c1`: the Ratio IC50 turned out to be 3.7.

Consider `C=CC(=O)Nc1cccc(-n2c(=O)c(=O)[nH]c3cnc(Nc4ccc(N5CCN(C)CC5)cc4OC)nc32)c1`, for which the Ratio IC50 came out at 1.1.

A further experiment is filed under the species Homo sapiens. As to the kind of experiment: Selectivity index, ratio of inhibition of EGF-induced EGFR kinase domain phosphorylation in human NCI-H1975 cells at 1000 nM to inhibition of EGF-induced EGFR kinase domain L858R/T790M mutant phosphorylation in human NCI-H1975 cells at 1 to 1000 nM. It counts as cell-based.
Turning to `C=CC(=O)Nc1cccc(-n2c(=O)c(=O)n(C(C)C)c3cnc(Nc4ccc(N5CCN(C)CC5)cc4OC)nc32)c1`, the Ratio amounted to 10.

For the origin of these results see ChEMBL document CHEMBL4425144, “Discovery and Structural Optimization of N5-Substituted 6,7-Dioxo-6,7-dihydropteridines as Potent and Selective Epidermal Growth Factor Receptor (EGFR) Inhibitors against L858R/T790M Resistance Mutation” (J Med Chem, 2016).
